Experimental data as given in article PMC9614474 (Plant Physiology, 2022).

Amino acid sequences for entries named in this document (tags omitted). Residues count along the entry.
UniProt G2X4U8, 19-145 limits assumed: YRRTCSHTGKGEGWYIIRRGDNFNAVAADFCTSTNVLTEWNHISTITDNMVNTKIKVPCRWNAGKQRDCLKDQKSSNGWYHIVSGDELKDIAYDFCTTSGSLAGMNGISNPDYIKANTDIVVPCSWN

Target: Vd2LysM (Verticillium dahliae, UniProt G2X4U8)

CC(=O)N[C@H]1[C@H](O[C@H]2[C@H](O)[C@@H](NC(C)=O)[C@H](O[C@H]3[C@H](O)[C@@H](NC(C)=O)C(O)O[C@@H]3CO)O[C@@H]2CO)O[C@H](CO)[C@@H](O[C@@H]2O[C@H](CO)[C@@H](O[C@@H]3O[C@H](CO)[C@@H](O[C@@H]4O[C@H](CO)[C@@H](O)[C@H](O)[C@H]4NC(C)=O)[C@H](O)[C@H]3NC(C)=O)[C@H](O)[C@H]2NC(C)=O)[C@@H]1O (stereo partly shown) [Chi6, hexaacetylchitohexaose]
ligand-induced polymerization, centrifugation pellet with methylene blue: clear pellets were formed upon incubation of these proteins with chitin
